Measured values reported in patent US4556671A, “Pharmaceutical formulations” (Burroughs Wellcome Co., priority 1981, dated 1985).

Sequences of proteins named here, by UniProt entry; tags and fusion partners are left off. Residues count along the entry.
UniProt P23219, 24-599: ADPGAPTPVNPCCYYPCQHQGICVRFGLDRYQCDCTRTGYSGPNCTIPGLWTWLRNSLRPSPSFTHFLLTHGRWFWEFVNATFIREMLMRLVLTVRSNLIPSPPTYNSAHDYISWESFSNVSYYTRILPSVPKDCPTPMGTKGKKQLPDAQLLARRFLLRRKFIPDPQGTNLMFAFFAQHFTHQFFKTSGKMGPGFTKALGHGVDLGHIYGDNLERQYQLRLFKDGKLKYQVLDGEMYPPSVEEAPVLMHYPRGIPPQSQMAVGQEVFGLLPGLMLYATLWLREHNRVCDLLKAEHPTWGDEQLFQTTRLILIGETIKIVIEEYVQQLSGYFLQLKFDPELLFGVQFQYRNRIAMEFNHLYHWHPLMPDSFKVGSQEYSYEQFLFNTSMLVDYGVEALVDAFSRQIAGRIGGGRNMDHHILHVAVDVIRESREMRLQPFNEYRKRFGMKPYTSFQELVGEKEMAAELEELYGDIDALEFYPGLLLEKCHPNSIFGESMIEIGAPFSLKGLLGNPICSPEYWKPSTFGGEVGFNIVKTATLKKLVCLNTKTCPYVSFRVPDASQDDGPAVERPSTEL

Columns and labels:
Prostaglandin = assay: Carrageenin-impregnated sponge inflammatory exudates: prostaglandin concentration; assay type: in vivo, rat; details: 50 mg/kg p.o., 24 hours
Protocol: The sponges were removed after 24 hours, immersed in 5 ml herparinised saline and squeezed until dry.

cyclo-oxygenase = cyclo-oxygenase (Homo sapiens, UniProt P23219); details: read-out: IC50 (cyclo-oxygenase)

Which results are given for `NC1=NN(c2cccc(C(F)(F)F)c2)CC1` [Example 1, 3-Amino-1-(m-trifluoromethylphenyl)pyrazol-2-ine]?
Reduction of Prostaglandin Concentration (Prostaglandin): 69%; IC50 (cyclo-oxygenase): 12.2 µM
